# Experimental data as given in US6583175B2, “Alkylxanthates and use of alkylxanthates in the integrated pest management” (Council of Scientific & Industrial Research, priority 2001, dated 2003).
# Read-outs that look alike come from different tables or passages of the source.
# Experiments:
# Aedes aegypti = assay: Larvicidal activity against IV instar larvae of Aedes aegypti; type: in vivo; conditions: 24 hours
# Spodoptera litura [1] = assay: Antifeedant activity against late third instar of Spodoptera litura (leaf disk, oral feeding); type: in vivo
# Helicoverpa armigera = conditions: topical
# Spodoptera litura [2] = conditions: topical
# [3] = system: Brine shrimp, Artemia salina; assay: Brine shrimp bioassay (toxic activity); conditions: Artemia salina nauplii, 24 hours
substance,measurement,setting,value
p-Xylene Bis (n-butylxanthate),LC50 ± S.E.,Aedes aegypti,7.35 ± 0.51 µg/mL
same,A.I. (Anti-feedent Index),Spodoptera litura [1]; 10 μg/sq. cm.,2.59
same,Percent leaf consumption 12 hr,Spodoptera litura [1]; 10 μg/sq. cm.,57.3%
same,Percent leaf consumption 24 hr,Spodoptera litura [1]; 10 μg/sq. cm.,90.2%
same,A.I. (Anti-feedent Index),Spodoptera litura [1]; 15 μg/sq. cm.,5.97
same,Percent leaf consumption 12 hr,Spodoptera litura [1]; 15 μg/sq. cm.,62.4%
same,Percent leaf consumption 24 hr,Spodoptera litura [1]; 15 μg/sq. cm.,84.3%
same,A.I. (Anti-feedent Index),Spodoptera litura [1]; 20 μg/sq. cm.,24.51
same,Percent leaf consumption 12 hr,Spodoptera litura [1]; 20 μg/sq. cm.,35.2%
same,Percent leaf consumption 24 hr,Spodoptera litura [1]; 20 μg/sq. cm.,57.6%
same,A.I. (Anti-feedent Index),Spodoptera litura [1]; 25 μg/sq. cm.,58.86
same,Percent leaf consumption 12 hr,Spodoptera litura [1]; 25 μg/sq. cm.,20.5%
same,Percent leaf consumption 24 hr,Spodoptera litura [1]; 25 μg/sq. cm.,24.6%
same,Concentration required for 50% leaf protection EC50 ± S.E.,Spodoptera litura [1]; late third instar,29.45 ± 1.76 μg/cm^2
same,Adult emergence: Abnormal adults,Helicoverpa armigera; 20 μg/Insect,19
same,Adult emergence: Intermediates,Helicoverpa armigera; 20 μg/Insect,7
same,Adult emergence: Non emergence,Helicoverpa armigera; 20 μg/Insect,5
same,Adult emergence: Normal adults,Helicoverpa armigera; 20 μg/Insect,33
same,Larval mortality (%),Helicoverpa armigera; 20 μg/Insect,18%
same,Pupal Formation: Abnormal pupa,Helicoverpa armigera; 20 μg/Insect,27
same,Pupal Formation: Normal pupa,Helicoverpa armigera; 20 μg/Insect,39
same,Pupal Formation: Pupal Mortality,Helicoverpa armigera; 20 μg/Insect,16
same,Adult emergence: Abnormal adults,Helicoverpa armigera; 35 μg/Insect,12
same,Adult emergence: Intermediates,Helicoverpa armigera; 35 μg/Insect,3
same,Adult emergence: Non emergence,Helicoverpa armigera; 35 μg/Insect,6
same,Adult emergence: Normal adults,Helicoverpa armigera; 35 μg/Insect,9
same,Larval mortality (%),Helicoverpa armigera; 35 μg/Insect,42%
same,Pupal Formation: Abnormal pupa,Helicoverpa armigera; 35 μg/Insect,18
same,Pupal Formation: Normal pupa,Helicoverpa armigera; 35 μg/Insect,12
same,Pupal Formation: Pupal Mortality,Helicoverpa armigera; 35 μg/Insect,28
same,Adult emergence: Abnormal adults,Helicoverpa armigera; 50 μg/Insect,13
same,Adult emergence: Intermediates,Helicoverpa armigera; 50 μg/Insect,5
same,Adult emergence: Non emergence,Helicoverpa armigera; 50 μg/Insect,4
same,Adult emergence: Normal adults,Helicoverpa armigera; 50 μg/Insect,5
same,Larval mortality (%),Helicoverpa armigera; 50 μg/Insect,56%
same,Pupal Formation: Abnormal pupa,Helicoverpa armigera; 50 μg/Insect,13
same,Pupal Formation: Normal pupa,Helicoverpa armigera; 50 μg/Insect,10
same,Pupal Formation: Pupal Mortality,Helicoverpa armigera; 50 μg/Insect,21
same,Adult emergence: Abnormal adults,Helicoverpa armigera; 75 μg/Insect,2
same,Adult emergence: Intermediates,Helicoverpa armigera; 75 μg/Insect,2
same,Adult emergence: Non emergence,Helicoverpa armigera; 75 μg/Insect,8
same,Adult emergence: Normal adults,Helicoverpa armigera; 75 μg/Insect,0
same,Larval mortality (%),Helicoverpa armigera; 75 μg/Insect,71%
same,Pupal Formation: Abnormal pupa,Helicoverpa armigera; 75 μg/Insect,7
same,Pupal Formation: Normal pupa,Helicoverpa armigera; 75 μg/Insect,5
same,Pupal Formation: Pupal Mortality,Helicoverpa armigera; 75 μg/Insect,17
same,Adult emergence: Abnormal adults,Helicoverpa armigera; 100 μg/Insect,1
same,Adult emergence: Intermediates,Helicoverpa armigera; 100 μg/Insect,1
same,Adult emergence: Non emergence,Helicoverpa armigera; 100 μg/Insect,4
same,Adult emergence: Normal adults,Helicoverpa armigera; 100 μg/Insect,0
same,Larval mortality (%),Helicoverpa armigera; 100 μg/Insect,85%
same,Pupal Formation: Abnormal pupa,Helicoverpa armigera; 100 μg/Insect,6
same,Pupal Formation: Normal pupa,Helicoverpa armigera; 100 μg/Insect,0
same,Pupal Formation: Pupal Mortality,Helicoverpa armigera; 100 μg/Insect,15
same,Adult emergence: Abnormal adults,Spodoptera litura [2]; 5 μg/Insect,29
same,Adult emergence: Intermediates,Spodoptera litura [2]; 5 μg/Insect,10
same,Adult emergence: Non-emergence,Spodoptera litura [2]; 5 μg/Insect,0
same,Adult emergence: Normal adults,Spodoptera litura [2]; 5 μg/Insect,59
same,Larval mortality (%),Spodoptera litura [2]; 5 μg/Insect,0%
same,Pupal Formation: Abnormal pupa,Spodoptera litura [2]; 5 μg/Insect,15
same,Pupal Formation: Normal pupa,Spodoptera litura [2]; 5 μg/Insect,85
same,Pupal Formation: Pupal Mortality,Spodoptera litura [2]; 5 μg/Insect,2
same,Adult emergence: Abnormal adults,Spodoptera litura [2]; 10 μg/Insect,38
same,Adult emergence: Intermediates,Spodoptera litura [2]; 10 μg/Insect,10
same,Adult emergence: Non-emergence,Spodoptera litura [2]; 10 μg/Insect,1
same,Adult emergence: Normal adults,Spodoptera litura [2]; 10 μg/Insect,44
same,Larval mortality (%),Spodoptera litura [2]; 10 μg/Insect,5%
same,Pupal Formation: Abnormal pupa,Spodoptera litura [2]; 10 μg/Insect,23
same,Pupal Formation: Normal pupa,Spodoptera litura [2]; 10 μg/Insect,72
same,Pupal Formation: Pupal Mortality,Spodoptera litura [2]; 10 μg/Insect,3
same,Adult emergence: Abnormal adults,Spodoptera litura [2]; 20 μg/Insect,36
same,Adult emergence: Intermediates,Spodoptera litura [2]; 20 μg/Insect,14
same,Adult emergence: Non-emergence,Spodoptera litura [2]; 20 μg/Insect,5
same,Adult emergence: Normal adults,Spodoptera litura [2]; 20 μg/Insect,25
same,Larval mortality (%),Spodoptera litura [2]; 20 μg/Insect,20%
same,Pupal Formation: Abnormal pupa,Spodoptera litura [2]; 20 μg/Insect,21
same,Pupal Formation: Normal pupa,Spodoptera litura [2]; 20 μg/Insect,59
same,Pupal Formation: Pupal Mortality,Spodoptera litura [2]; 20 μg/Insect,5
same,Adult emergence: Abnormal adults,Spodoptera litura [2]; 35 μg/Insect,17
same,Adult emergence: Intermediates,Spodoptera litura [2]; 35 μg/Insect,2
same,Adult emergence: Non-emergence,Spodoptera litura [2]; 35 μg/Insect,4
same,Adult emergence: Normal adults,Spodoptera litura [2]; 35 μg/Insect,9
same,Larval mortality (%),Spodoptera litura [2]; 35 μg/Insect,59%
same,Pupal Formation: Abnormal pupa,Spodoptera litura [2]; 35 μg/Insect,29
same,Pupal Formation: Normal pupa,Spodoptera litura [2]; 35 μg/Insect,12
same,Pupal Formation: Pupal Mortality,Spodoptera litura [2]; 35 μg/Insect,13
same,Adult emergence: Abnormal adults,Spodoptera litura [2]; 50 μg/Insect,13
same,Adult emergence: Intermediates,Spodoptera litura [2]; 50 μg/Insect,3
same,Adult emergence: Non-emergence,Spodoptera litura [2]; 50 μg/Insect,1
same,Adult emergence: Normal adults,Spodoptera litura [2]; 50 μg/Insect,2
same,Larval mortality (%),Spodoptera litura [2]; 50 μg/Insect,71%
same,Pupal Formation: Abnormal pupa,Spodoptera litura [2]; 50 μg/Insect,21
same,Pupal Formation: Normal pupa,Spodoptera litura [2]; 50 μg/Insect,8
same,Pupal Formation: Pupal Mortality,Spodoptera litura [2]; 50 μg/Insect,14
same,Adult emergence: Abnormal adults,Spodoptera litura [2]; 75 μg/Insect,2
same,Adult emergence: Intermediates,Spodoptera litura [2]; 75 μg/Insect,2
same,Adult emergence: Non-emergence,Spodoptera litura [2]; 75 μg/Insect,2
same,Adult emergence: Normal adults,Spodoptera litura [2]; 75 μg/Insect,0
same,Larval mortality (%),Spodoptera litura [2]; 75 μg/Insect,86%
same,Pupal Formation: Abnormal pupa,Spodoptera litura [2]; 75 μg/Insect,11
same,Pupal Formation: Normal pupa,Spodoptera litura [2]; 75 μg/Insect,3
same,Pupal Formation: Pupal Mortality,Spodoptera litura [2]; 75 μg/Insect,10
same,Adult emergence: Abnormal adults,Spodoptera litura [2]; 100 μg/Insect,0
same,Adult emergence: Intermediates,Spodoptera litura [2]; 100 μg/Insect,1
same,Adult emergence: Non-emergence,Spodoptera litura [2]; 100 μg/Insect,2
same,Adult emergence: Normal adults,Spodoptera litura [2]; 100 μg/Insect,0
same,Larval mortality (%),Spodoptera litura [2]; 100 μg/Insect,95%
same,Pupal Formation: Abnormal pupa,Spodoptera litura [2]; 100 μg/Insect,5
same,Pupal Formation: Normal pupa,Spodoptera litura [2]; 100 μg/Insect,0
same,Pupal Formation: Pupal Mortality,Spodoptera litura [2]; 100 μg/Insect,4
same,LC50 ± S.E.,[3],45.23 ± 5.63 µg/mL
